From US11807635B2, “Nitrile derivative that acts as inhibitor of dipeptidyl peptidase 1 and use thereof” (HAISCO PHARMACEUTICALS PTE. LTD, priority 2020, dated 2023) come the findings set out here.

Protein sequences, listed by entry. Tags and fused reporters are not part of them. Residues count along the entry.
UniProt P53634, 395-463: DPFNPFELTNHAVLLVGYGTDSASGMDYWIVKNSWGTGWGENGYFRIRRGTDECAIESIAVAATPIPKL
UniProt P53634, 25-134: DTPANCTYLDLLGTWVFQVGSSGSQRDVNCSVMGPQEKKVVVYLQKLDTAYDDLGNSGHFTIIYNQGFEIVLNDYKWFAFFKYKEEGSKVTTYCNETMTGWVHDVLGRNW
UniProt P53634, 231-394: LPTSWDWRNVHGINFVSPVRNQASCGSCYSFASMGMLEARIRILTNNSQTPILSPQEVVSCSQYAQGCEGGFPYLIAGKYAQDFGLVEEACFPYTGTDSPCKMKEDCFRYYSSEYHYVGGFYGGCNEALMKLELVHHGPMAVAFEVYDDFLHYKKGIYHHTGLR

This experiment concerns the target Recombinant human DPP1 enzyme (Homo sapiens (Human), UniProt P53634). Put plainly: In vitro DPP1 enzyme activity assay. In kind it is biochemical. The note with it: recombinant human DPP1 activated with cathepsin L, substrate Gly-Arg-AMC, fluorescence; read-out: DPP1 inhibitory activity IC50.

Regarding `[2H]C([2H])([2H])n1c(=O)oc2ccc(-c3ccc(C[C@@H](C#N)NC(=O)[C@@H]4CNCCCO4)c(F)c3)cc21` [Compound 23, (S)—N—((S)-1-cyano-2-(2-fluoro-4-(3-(methyl-d3)-2-oxo-2,3-dihydrobenzo[d]oxazol-5-yl)phenyl)ethyl)-1,4-oxazepane-2-carboxamide], the IC50 stood at 0.5 nM.

As usually defined, the IC50 is the concentration that gives 50% inhibition.
